Literature values, collected in paper PMC10952255, “Solid‐Phase Synthesis and Biological Evaluation of Peptides ADP‐Ribosylated at Histidine” (Angewandte Chemie (Weinheim an Der Bergstrasse, Germany), 2023).

Conditions: quoted without reference; cited from earlier work

**Q.** With imidazole as the substance, how does the pKa read?
**A.** Its pKa is 14.5.
